Test results from article PMC4537392 (Neuropharmacology, 2015).

By UniProt entry, the sequences of proteins in these tests, tags left out. Residues count along the entry.
UniProt P31423, 33-912: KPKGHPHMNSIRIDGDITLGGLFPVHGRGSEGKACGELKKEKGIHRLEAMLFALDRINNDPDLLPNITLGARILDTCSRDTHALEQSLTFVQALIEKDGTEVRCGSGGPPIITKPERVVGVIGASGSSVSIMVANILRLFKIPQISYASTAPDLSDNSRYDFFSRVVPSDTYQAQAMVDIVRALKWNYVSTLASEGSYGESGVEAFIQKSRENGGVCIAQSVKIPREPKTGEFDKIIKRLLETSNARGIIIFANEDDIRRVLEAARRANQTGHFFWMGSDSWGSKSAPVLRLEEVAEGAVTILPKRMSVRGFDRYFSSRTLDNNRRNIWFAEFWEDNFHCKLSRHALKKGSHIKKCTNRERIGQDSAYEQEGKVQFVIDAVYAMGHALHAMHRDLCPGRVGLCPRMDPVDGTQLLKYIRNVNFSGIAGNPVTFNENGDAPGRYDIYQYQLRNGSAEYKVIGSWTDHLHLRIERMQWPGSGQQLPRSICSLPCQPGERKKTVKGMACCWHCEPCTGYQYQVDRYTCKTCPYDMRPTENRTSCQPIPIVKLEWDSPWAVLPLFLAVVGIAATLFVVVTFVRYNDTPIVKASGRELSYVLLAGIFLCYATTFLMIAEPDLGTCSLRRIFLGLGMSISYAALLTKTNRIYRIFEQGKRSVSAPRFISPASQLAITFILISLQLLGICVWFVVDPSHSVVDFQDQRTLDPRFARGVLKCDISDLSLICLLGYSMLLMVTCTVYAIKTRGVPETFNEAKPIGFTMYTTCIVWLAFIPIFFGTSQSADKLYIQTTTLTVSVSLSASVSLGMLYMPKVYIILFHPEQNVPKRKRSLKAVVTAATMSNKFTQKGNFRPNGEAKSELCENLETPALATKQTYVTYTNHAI

Experiments:
mGlu4 [1] = molecular target: T1, mGlu4 (Rattus norvegicus, UniProt P31423); assay: Association and dissociation assays of [3H]3; type: binding
mGlu4 [2] = molecular target: T1, mGlu4; assay: mGlu4 competitive binding assay against [3H]ML128; conditions: IC50 (binding inhibition of [3H]3)

Kd (mGlu4 [1]) [nM]	IC50 (mGlu4 [2]; 10 nM [3H]3, with 100 nM of 1 (glutamate)) [nM]	IC50 (mGlu4 [2]; 10 nM [3H]3, with 1 mM of 1 (glutamate)) [nM]	Structure (SMILES)
19			COc1cc(NC(=O)c2ccccn2)ccc1Cl [[^3H]3, N-(4-Chloro-3-methoxyphenyl)-2-picolinamide]
	11	10	COc1cc(NC(=O)c2ccccn2)ccc1Cl [compound 3, N-(4-Chloro-3-methoxyphenyl)-2-picolinamide, reference compound]
